Experimental data reported in ChEMBL document CHEMBL4229498 (Bioorg Med Chem, 2018).

Organism: Homo sapiens
Experiment: Selectivity ratio of Ki for human CB2 receptor to Ki for human CB1 receptor

O=C(OCC1CCC1)N1CCN(c2ncnc3c2nc(-c2ccccc2Cl)n3-c2ccc(Cl)cc2)CC1
Ratio Ki: 1500
